Data published in ChEMBL document CHEMBL1156943, “Toward the development of potent and selective bisubstrate inhibitors of protein arginine methyltransferases” (Bioorg Med Chem Lett, 2010).

The chains behind the UniProt entries cited, without tags or fusion partners.
UniProt Q99873, whole entry: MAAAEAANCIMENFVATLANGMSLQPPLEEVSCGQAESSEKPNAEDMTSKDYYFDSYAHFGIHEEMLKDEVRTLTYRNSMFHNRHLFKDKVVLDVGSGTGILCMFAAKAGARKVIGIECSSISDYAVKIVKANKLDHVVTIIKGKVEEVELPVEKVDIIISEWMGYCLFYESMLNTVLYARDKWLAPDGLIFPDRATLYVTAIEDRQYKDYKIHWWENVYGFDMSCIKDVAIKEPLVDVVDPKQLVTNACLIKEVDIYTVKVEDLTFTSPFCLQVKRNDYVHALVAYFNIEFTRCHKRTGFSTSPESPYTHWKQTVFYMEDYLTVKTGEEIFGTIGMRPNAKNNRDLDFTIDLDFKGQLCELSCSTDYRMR

Molecular target: Protein arginine N-methyltransferase 1 (Homo sapiens, UniProt Q99873)
Assay: Inhibition of GST-fused human recombinant PRMT1 after 90 mins by SDS-PAGE based scintillation counting

For `C[S+](CC[C@H](N)C(=O)[O-])C[C@H]1O[C@@H](n2cnc3c(N)ncnc32)[C@H](O)[C@@H]1O` (some centres not stated) [ADEMETIONINE], which IC50 is on record?
The IC50 was 12 µM.

With `Nc1ncnc2c1ncn2[C@@H]1O[C@H](C[C@@H](N)CC[C@H](N)C(=O)O)[C@@H](O)[C@H]1O` [SINEFUNGIN] as the molecule, how does the IC50 read?
Its IC50 is less than 1 µM.
